The numbers were not newly measured in patent US5843887A, “Compositions for delivery of polypeptides, and methods” (Allied Medical Research Associates, priority 1994, dated 1998), which cites them from elsewhere.

For the data set the following is noted: nasal route, cited from earlier work.

For insulin, the onset of action was not above 10 min. Further, the fraction of absorption (with surfactant materials) is given as 10-20%.
